G9a inh: blocks human histone lysine methyltransferase G9a; G9a H3K9 monomethylation, AlphaScreen, 2 h; Potency, µM (series often up to 102 µM), without a hit: at the highest dose activity, negative = inhibition, actives largely listed as inhibitors; hit rate 8.8% among 350,000; AID 504332; note: potency is the fitted concentration of half-maximal effect; % is set by controls: 0 for no effect and ±100 for the full control effect; nearly all actives have a fitted effect of over 75% in size
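Using a bead-based AlphaScreen, monomethylated H3K9 product from 2 h room-temperature reactions (G9a 20 nM, peptide 500 nM, SAM 20 uM) was detected with 0.5 ug/mL rabbit anti-H3K9me1 antibody.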
LMNA splice mod: changes lamin A minigene splicing in HeLa cells; hit rate 0.01% among 200,000; HeLa LMNA splicing GFP/RFP minigene ratio, 48 h; Potency, µM (series often up to 46.1 µM), for inactives: at the top dose ratio change, negative = inhibition, hits mostly inhibitors; active = well fitted inhibition curve with a large enough effect in the signal ratio, with a control signal flat, not every such curve was filed as active; inconclusive = small, poorly fitted or top-dose-only effect, or effect the other way, or a change in a side signal; the % refers to the signal ratio; note: potency is the fitted concentration of half-maximal effect; % is set by controls: 0 for no effect and ±100 for the full control effect
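S3 HeLa stable clones carrying a lamin A-EGFP splicing minigene plus DsRed2 were seeded at 600 cells/well in Opti-MEM with 2% FBS, pin-dosed and incubated 48 h at 37°C. Acumen cytometry (488 nm) gave the GFP/RFP total-intensity ratio.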
miR-21 FLuc: raises the signal of a miR-21 reporter | HeLa miR-21 FLuc reporter, luciferase, 48 h | Potency, µM (doses to about 38.3 µM), without a hit: at the top dose reporter change, positive = more light | 340,000 tested, under 10 active | AID 2288; active = well fitted rising curve with a large enough effect; inconclusive = small, poorly fitted or top-dose-only effect; inactive = no such curve, though single readings can be large or run the other way;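 note: % of control where 0% means no effect; miR-21 action dims this reporter so a rising signal means less miR-21 action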
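HeLa cells stably expressing CMV-driven firefly luciferase with a downstream miR-21 binding sequence, endogenously expressing miR-21, were treated with titrations (up to about 40uM final) for 48 hours at 37 degree Celsius. Luciferase luminescence was read after lysis.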
Sfp PPTase inh: inhibitors of Bacillus subtilis Sfp phosphopantetheinyl transferase | Biochemical Sfp PPTase activity, qHTS | AID 1490 | Potency, µM, for the others: max response, negative = inhibition, hits mostly inhibitors | actives 3.5% (n = 310,000) | Q9F4F7; active = well fitted inhibition curve with a large enough effect; inconclusive = small, poorly fitted or top-dose-only effect, or another doubt; inactive = no such curve, though single readings can be large or run the other way;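 also: the enzyme is Sfp with the accession as filed and its product quenches rhodamine fluorescence; potency is read from the fitted curve at half-maximal effect; 0% = enzyme reaction without inhibitor and -100% = no enzyme wells; top concentration of the series not given in the record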
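After 15 min at room temperature with compound, 15 nM Sfp received 5 uM rhodamine-CoA plus 12.5 uM BHQ-2-ybbR (50 mM Hepes pH 7.6, 10 mM MgCl2). Rate came from the fluorescence difference over 30 min, ex 525/em 598 nm.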
JMJD2E inh: inhibitors of human JMJD2E histone demethylase. JMJD2E catalytic domain, FDH-coupled NADH fluorescence (FDH is formaldehyde dehydrogenase). Potency, µM (titrated, usually from 57.1 µM), for the others: top-dose activity change, negative = inhibition, hits mostly inhibitors. hit rate 1.6% among 230,000; active = well fitted inhibition curve with a large enough effect, not every such curve was filed as active; inconclusive = small, poorly fitted or top-dose-only effect, or another doubt; inactive = no such curve, though single readings can be large or run the other way;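 note: potency is the fitted concentration of half-maximal effect; 0% = wells with enzyme and -100% = buffer wells without enzyme; nearly all actives have a fitted effect of over 50% in size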
ALDH1A1 inh: inhibitors of human aldehyde dehydrogenase 1A1; P00352; Purified ALDH1A1, NADH fluorescence, propionaldehyde substrate; Potency, µM (series often up to 75.3 µM), for inactives: at the highest dose activity, negative = inhibition, most hits filed as inhibitors; hit rate 7.3% among 220,000; active = well fitted inhibition curve with a large enough effect, not every such curve was filed as active; inconclusive = small, poorly fitted or top-dose-only effect, or another doubt; inactive = no such curve, though single readings can be large or run the other way;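 note: potency is the fitted concentration of half-maximal effect; plate controls were no enzyme wells and a reference inhibitor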
* = called active by the depositor; [ ] = dose if it differs, or a comment. Only some compounds are listed: those with a hit (about 13% of all), similar ones and a draw of the others. Unless noted, calls come from the whole dose curve; as a rule, active = well fitted curve in the direction sought with a large enough effect; inconclusive = small, poorly fitted or top-dose-only effect, or another doubt; inactive = no such curve, though single readings can be large; an effect the other way counts as inactive or inconclusive.

Results for O=C(CSc1ncccn1)Nc1ccc2[nH]c(=O)[nH]c2c1 ?
G9a inh: 14µM*

How did O=C(COC(=O)Cc1ccc(Cl)cc1)Nc1ccc2[nH]c(=O)[nH]c2c1 do in these assays?
G9a inh: 50µM*

Results for COc1ccc(CCC(=O)OCC(=O)Nc2ccc3[nH]c(=O)[nH]c3c2)cc1 ?
G9a inh: -35%

How did Cc1cccc(Cl)c1NC[C@H](O)CN1CCN(C)CC1 do in these assays?
ALDH1A1 inh: 1%[13.5 µM]

What do the screens show for `CN(CC(=O)Nc1ccc(F)cc1)C(=O)COC(=O)c1cccc(N(C)C)c1`?
G9a inh: 3%[59 µM]

Results for Fc1ccc2nc(Nc3ccccc3)sc2c1 ?
G9a inh: 8%; miR-21 FLuc: -46%; Sfp PPTase inh: 12%; JMJD2E inh: -5%; ALDH1A1 inh: 2%

How did S=c1[nH]cnc2sc(Nc3ccccc3)nc12 do in these assays?
G9a inh: 13%; miR-21 FLuc: -45%; Sfp PPTase inh: 2.2µM*; JMJD2E inh: -5%; ALDH1A1 inh: 11%

What do the screens show for `O=C(c1cccc(F)c1)N1CCC2(CCCN(c3ccc(-c4ccccc4)cc3)C2)CC1`?
G9a inh: -3%[12.7 µM]; Sfp PPTase inh: 0%; ALDH1A1 inh: 1%

How did COc1ccc(CNc2cc(-c3ccoc3)ncn2)c(OC)c1 do in these assays?
G9a inh: 3%[0.501 µM]; LMNA splice mod: inconclusive; Sfp PPTase inh: 45µM*; ALDH1A1 inh: 25µM*

What do the screens show for `c1ccc(CNc2cc(-c3ccoc3)ncn2)cc1`?
G9a inh: 5%[0.501 µM]; LMNA splice mod: inconclusive; Sfp PPTase inh: 32µM*; ALDH1A1 inh: 22µM*

Results for COc1cccc(-c2cc(NCc3ccccc3OC)ncn2)c1 ?
G9a inh: 5%[0.501 µM]; LMNA splice mod: inconclusive; Sfp PPTase inh: -4%; ALDH1A1 inh: 9%

How did COc1cccc2c1Oc1ncccc1N(C(=O)CCC(=O)NCCC(C)C)C2 do in these assays?
G9a inh: -3%[59 µM]; LMNA splice mod: 15%[46 µM]; miR-21 FLuc: -2%

What do the screens show for `O=C(NCC1CCCO1)c1cccc(S(=O)(=O)N(Cc2ccccc2)c2ccccc2)c1` (stereo not drawn)?
G9a inh: -21%

How did CCOC(=O)c1oc2ccc(CNCCO)c(Cl)c2c1C do in these assays?
G9a inh: 9%; LMNA splice mod: 2%; miR-21 FLuc: -42%; Sfp PPTase inh: 9%; JMJD2E inh: -2%; ALDH1A1 inh: -2%

How did CCOC(=O)c1oc2ccc(CNC3CCCCC3)c(Cl)c2c1C do in these assays?
G9a inh: 10µM*; LMNA splice mod: 5%; miR-21 FLuc: 12%; Sfp PPTase inh: 0%; JMJD2E inh: inconclusive; ALDH1A1 inh: inconclusive

What do the screens show for `O=C(Nc1ccccc1N1CCOCC1)c1cc2ccccc2o1`?
G9a inh: 16%; miR-21 FLuc: -7%; Sfp PPTase inh: 8%

What do the screens show for `CC(C)(C)C(=O)Nc1cc(S(=O)(=O)N2CCCCC2)ccc1N1CCCCC1`?
G9a inh: 40µM*; miR-21 FLuc: 0%; Sfp PPTase inh: -6%; JMJD2E inh: 2%; ALDH1A1 inh: -1%

What do the screens show for `CCN1CCN(c2ccc(S(=O)(=O)N3CCCCC3)cc2NC(=O)c2cccc(OC(F)F)c2)CC1`?
G9a inh: 13µM*

How did CCN1CCN(c2ccc(S(=O)(=O)N3CCCCC3)cc2NC(=O)c2ccc(OC(F)F)cc2)CC1 do in these assays?
G9a inh: 14µM*

How did O=C(Nc1ccccc1N1CCCC1)c1cc2ccccc2o1 do in these assays?
G9a inh: inconclusive; LMNA splice mod: 5%; miR-21 FLuc: -37%; Sfp PPTase inh: -13%; JMJD2E inh: inconclusive; ALDH1A1 inh: 28µM*

Results for CCN1CCN(c2ccc(S(=O)(=O)N3CCCCC3)cc2NC(=O)Cc2c(F)cccc2Cl)CC1 ?
miR-21 FLuc: -8%; Sfp PPTase inh: -6%

How did CCN1CCN(c2ccc(S(=O)(=O)N3CCCCC3)cc2NC(=O)Cc2ccc(OC)cc2)CC1 do in these assays?
G9a inh: -6%[12.7 µM]; miR-21 FLuc: 2%; Sfp PPTase inh: 6%

What do the screens show for `CN1CCN(c2ccc(S(=O)(=O)N3CCCCC3)cc2NC(=O)c2ccc3ccccc3c2)CC1`?
G9a inh: inconclusive; LMNA splice mod: -15%; miR-21 FLuc: -3%; Sfp PPTase inh: 40µM*; JMJD2E inh: -1%; ALDH1A1 inh: -9%

How did CC(=O)Nc1ccc(NC(=O)c2cccc(-c3cc4ccccc4oc3=O)c2)cc1 do in these assays?
G9a inh: 1%; LMNA splice mod: inconclusive; miR-21 FLuc: -26%; Sfp PPTase inh: 4%; JMJD2E inh: inconclusive; ALDH1A1 inh: -1%

What do the screens show for `CCN1CCN(c2ccc(S(=O)(=O)N3CCCCC3)cc2NC(=O)c2cc3ccccc3o2)CC1`?
G9a inh: 35µM*

How did O=C(Nc1ccc(OC(F)F)cc1)c1cc(S(=O)(=O)N2CCCCC2)ccc1N1CCOCC1 do in these assays?
G9a inh: 16µM*

Results for O=C(Nc1ccc(N2CCCC2)c(Cl)c1)c1cccc(-c2cc3ccccc3oc2=O)c1 ?
G9a inh: 45µM*; LMNA splice mod: inconclusive; miR-21 FLuc: -19%; Sfp PPTase inh: 8%; JMJD2E inh: -3%; ALDH1A1 inh: -1%

What do the screens show for `Cc1nc(NCCO)c2nc(-c3ccccc3)n(CC3CCN(C)CC3)c2n1`?
Sfp PPTase inh: 20%; JMJD2E inh: inconclusive; ALDH1A1 inh: inconclusive

What do the screens show for `CCN1CCN(c2ccc(S(=O)(=O)N3CCCCC3)cc2NC(=O)c2cccc(Cl)c2)CC1`?
G9a inh: 32µM*

Results for COc1ccc(CNC(=O)Cn2nc(N3CCN(c4ccccc4)CC3)ccc2=O)c(OC)c1 ?
G9a inh: -1%[59 µM]; miR-21 FLuc: 9%

Results for O=C(O)CCN1CCc2ccccc2C1c1ccncc1 (stereo not drawn) ?
G9a inh: 50µM*; miR-21 FLuc: -6%; Sfp PPTase inh: 0%

What do the screens show for `O=C(COc1ccccc1)OCC(=O)c1ccc(O)cc1O`?
G9a inh: 27%[12.7 µM]

How did CC(=O)NCc1ccc(C(=O)COC(=O)COc2ccccc2)s1 do in these assays?
G9a inh: 20µM*

How did Cc1nn(C(C)C(=O)NC2CCC(C)CC2)c(=O)c2cc3sccc3n12 (stereo not drawn) do in these assays?
G9a inh: -2%[59 µM]; miR-21 FLuc: -14%

Results for CCCn1c(NCc2cccc(OC)c2O)nc2ccccc21 ?
G9a inh: inconclusive; LMNA splice mod: -13%; miR-21 FLuc: -37%; Sfp PPTase inh: 13%; JMJD2E inh: -4%; ALDH1A1 inh: 6.3µM*

Compound activity as filed in PubChem BioAssay.
